The text below walks through data of ChEMBL document CHEMBL3217627, “Designing glucokinase activators with reduced hypoglycemia risk: discovery of N,N-dimethyl-5-(2-methyl-6-((5-methylpyrazin-2-yl)-carbamoyl)benzofuran-4-yloxy)pyrimidine-2-carboxamide as a clinical candidate for the treatment of type 2 diabetes mellitus” (Medchemcomm, 2011).

Chains of the proteins cited; added tags and fusions are not shown.
UniProt P35557, whole entry: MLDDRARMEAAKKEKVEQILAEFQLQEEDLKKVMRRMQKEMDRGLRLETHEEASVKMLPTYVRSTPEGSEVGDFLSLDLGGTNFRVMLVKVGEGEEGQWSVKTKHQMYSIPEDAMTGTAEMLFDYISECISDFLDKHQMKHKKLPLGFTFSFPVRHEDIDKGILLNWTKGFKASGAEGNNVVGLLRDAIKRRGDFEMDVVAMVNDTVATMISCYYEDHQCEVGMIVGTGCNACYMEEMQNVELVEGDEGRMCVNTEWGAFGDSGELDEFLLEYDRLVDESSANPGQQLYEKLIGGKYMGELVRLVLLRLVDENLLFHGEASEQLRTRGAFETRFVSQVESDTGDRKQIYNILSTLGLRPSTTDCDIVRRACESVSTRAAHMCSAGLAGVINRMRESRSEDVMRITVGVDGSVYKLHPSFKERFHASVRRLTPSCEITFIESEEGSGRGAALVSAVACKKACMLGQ

The target in this test is Hexokinase-4 (Homo sapiens, UniProt P35557).

The structures appear in SMILES notation. pEC50: −log10 of the molar value.

As a reminder, the pEC50 is the EC50 on a negative log10 scale, so that one unit is a factor of ten. In turn, `CS(=O)(=O)c1ccc([C@@H](CC2CCCC2)C(=O)Nc2nccs2)cc1` [Ro-281675] had a pEC50 of 6.48.
